Tested on: glioblastoma cell line T98G
Assay: Combination index (Chou-Talalay) of DNA damaging agent with Compound 1
Format: cell-based
Settings: T98G (O^6-MGMT^+); Compound 1 at its IC50 combined with dose response of the agent; CI < 1 synergism

With `CN(N=O)C(=O)N[C@H]1C(O)O[C@H](CO)[C@@H](O)[C@@H]1O` (mixture of isomers) [Streptozotocin] the “Mean CI ± SD (combination index with Compound 1)” value was 0.56 ± 0.05.
